## Apparent affinities of Ab-14 variants for a coronavirus HR2 peptide

Values reported by Li et al. 2023, doi:10.1038/s41467-023-39022-2 (FLAb copy).

All variants were tested on one target, the spike HR2 peptide PDVDLGDISGINAS (SARS-CoV-2).

Parent: Ab-14, a human scFv built as VH, the linker GGGGSGGGGSGGGGS, VL. Only the CDRs of the heavy chain vary.
VH: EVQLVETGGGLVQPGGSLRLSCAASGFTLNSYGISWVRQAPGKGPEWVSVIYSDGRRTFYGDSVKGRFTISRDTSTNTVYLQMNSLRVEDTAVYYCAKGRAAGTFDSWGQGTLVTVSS
VL: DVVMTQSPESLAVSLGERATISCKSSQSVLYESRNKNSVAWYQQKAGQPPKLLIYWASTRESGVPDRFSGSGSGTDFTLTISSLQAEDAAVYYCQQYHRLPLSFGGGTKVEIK

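The parent was found by panning a naive human phage display library on the peptide. These sequences belong to a second round, designed from the earlier measurements on random variants of the parent. Several design methods are mixed in this list. The scFvs were displayed on barcoded MATa yeast, the peptide on MATalpha yeast. Pairs that bind mate more often; barcode pairs of the diploids are counted by sequencing. Read counts were normalised to the haploid input and turned into Kd by a linear fit to BCL2-family pairs of known affinity, for each replicate. The assay was run in six technical replicates.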

The parent's heavy chain CDRs are GFTLNSYGIS, VIYSDGRRTFYGDSVK, GRAAGTFDS; each variant's own CDRs replace them letter for letter. Variants here have more than six changes. Values are apparent Kd, the geometric mean of the replicates that gave a signal; lower means stronger binding. "no signal" means that the variant was in the library but no mating with the target was seen in any replicate; the authors take this as a sign of poor binding, and no number exists. In the paper, a design with two or fewer of six values counts as a poor binder. The range of this assay differs from that of the first round, and the authors advise against merging the two. Nonspecific signal, from three strains lacking the peptide, appeared in 1% of pairings of all heavy chain designs, centred on 120 nM (5% of these signals below 7.0 nM); values are not corrected for it. Also given: how often the same scFv was detected with the empty control strains. The parent sequence was in this pool as ten entries: three were never detected, three once, and four in most replicates, with averages from 2.2 nM to 240 nM.

CDR-H1	CDR-H2	CDR-H3	Kd	detected	control signals
GFDLNEYGIS	VIYADGRRTAYIDSVK	GEIAGTFDK	430 pM	6 of 6	0 of 18
GFSLDDYGIS	VIYADGRRTMYAESVK	GQIAGSLFN	35 nM	1 of 6	0 of 18
GFDLNEYGIS	VIYADGLRTAYIDSVK	GENAGTFDV	84 pM	6 of 6	0 of 18
GFDLDEYGIS	VIYADGSRTAYADSVK	GNVAGTFDL	260 pM	6 of 6	0 of 18
GFDLNEYGIS	VIYADGMRTAYANSVK	GQVAGTFDV	320 pM	6 of 6	0 of 18
GFDLDEYGIS	VIYADGKRTAYADSVK	GQVAGTFDV	230 pM	6 of 6	0 of 18
GFDLEKYGIH	VIYADGIRTSYSDSVK	GDLSGTFYV	25 nM	3 of 6	0 of 18
GFDLDEYGIS	VIYADGKRTAYADSVK	GSNAGTFDM	690 pM	6 of 6	0 of 18
GFALNEYGIS	VIYADGSRKAYINSVK	GVNNMDVNV	31 nM	1 of 6	0 of 18
GFDLNEYGIS	VIYADGRRTAYSDSVK	GETAGTFDF	330 pM	6 of 6	0 of 18
GFDLNEYGIS	VIYADGKRTFYADSVK	GEVAGTFDL	1.5 nM	6 of 6	0 of 18
GFDLNEYGIS	VIYADGKRTAYSDSVK	GKNAGTFDV	390 pM	6 of 6	0 of 18
GFDLDEYGIS	VIYADGRRTSYIDSVK	GETAGTFDS	930 pM	6 of 6	0 of 18
GFDLNEYGIS	VIYADGMRTAYADSVK	GNVGGTFDV	2.6 nM	6 of 6	1 of 18
GFNLSEYGIS	VIYADGMRSNYADSFK	GKSGNFFID	no signal	0 of 6	0 of 18
GFDLDEYGIS	VIYADGRRTAYADSVK	GNNAGTFDM	880 pM	6 of 6	0 of 18
GFNLNEYGIS	VIYADGMRASYRNDVK	GQISGDFML	43 nM	2 of 6	0 of 18
GFDLNEYGIS	VIYADGKRTAYSDSVK	GNEAGTFDV	910 pM	6 of 6	0 of 18
GKDLEEYGIS	VIYADGFRTAYKNQVK	GSGVIDIMV	no signal	0 of 6	0 of 18
GFDLNEYGIS	VIYADGVRTAYSDSVK	GGNAGTFDL	350 pM	6 of 6	1 of 18
GEGLQEYGIS	VIYADGQRIYYSDDVK	GQVAGHFLV	no signal	0 of 6	0 of 18
GFGLDEYGIS	VIYADGVRRFYKNSVK	GHYGDGFLH	17 nM	6 of 6	0 of 18
GFDLNEYGIS	VIYADGMRTAYADKVK	GNTAGTFDL	650 pM	6 of 6	1 of 18
GGDIQEYGIS	VIYADGQRAQYADAVK	GNIGAIFSD	no signal	0 of 6	0 of 18
GFDIEEYGIS	VIYADGSRTAYSDSVK	SGYTFNMDL	160 nM	1 of 6	0 of 18
GFDLNEYGIS	VIYADGVRTFYADSVK	GTNAGTFDV	170 pM	6 of 6	0 of 18
GFDLDEYGIS	VIYADGMRTAYSDSVK	GDNAGTFDV	no signal	0 of 6	0 of 18
GFDLEDYGIS	VIYADGKRTAYADSVK	GNNAGTFDV	no signal	0 of 6	0 of 18
GFDLNEYGIS	VIYADGRRTFYADSVK	GQNAGTFDT	440 pM	6 of 6	1 of 18
GFDLNEYGIS	VIYADGSRTAYADSVK	GEVAGTFDL	700 pM	6 of 6	0 of 18
GFDIEEYGVS	VIYADGQRTMYTPNVK	GNITGLVDI	no signal	0 of 6	1 of 18
GFDLNEYGIS	VIYADGMRTAYVDDVK	GENAGTFDI	180 pM	6 of 6	0 of 18
GFDVDKYGIS	VIYADGRRKFYQNQFK	GGQAGTFVI	12 nM	3 of 6	0 of 18
GFNLDEYGIS	VIYADGMRTAYTDSVK	GNVAGTFDL	410 pM	6 of 6	0 of 18
GFDLNEYGIS	VIYADGRRTFYTDSVK	GQNAGTFDQ	300 pM	6 of 6	0 of 18
GFDLDEYGIS	VIYADGRRTAYADDVK	GNVAGTFDT	260 pM	6 of 6	0 of 18
GFDINEYGVS	VIYADGNRTMYQDQVK	GIEGGSFVL	no signal	0 of 6	0 of 18
GFDLDEYGIS	VIYADGMRTAYSDSVK	GNTAGTFDL	430 pM	6 of 6	0 of 18
GFEVDEYGIS	VIYADGKRSMYANKVK	GVIAGMMHV	no signal	0 of 6	0 of 18
GFDLNEYGIS	VIYADGRRTAYADNVK	GENAGTFDV	9.0 pM	6 of 6	0 of 18
GFDLNEYGIS	VIYADGRRTFYADSVK	GEVAGTFVV	1.2 nM	6 of 6	0 of 18
GFDLNEYGIS	VIYADGVRTSYADSVK	GQVAGTFDV	280 pM	6 of 6	0 of 18
GFDLNEYGIS	VIYADGRRTAYADSVK	GQVAGTFDE	7.1 nM	6 of 6	0 of 18
GFDLDEYGVS	VIYADGIRCTYADAVK	GKHGGAIFV	no signal	0 of 6	0 of 18
GFDLNEYGIS	VIYADGRRTFYADSVK	GKMAGTFDQ	230 pM	6 of 6	0 of 18
GFDLNEYGIS	VIYADGIRTAYADSVK	GNVAGTFDQ	150 pM	6 of 6	0 of 18
GFDLNEYGIS	VIYADGRRTQYIDSVK	GENAGTFDA	170 pM	6 of 6	0 of 18
GFDLNEYGIS	VIYADGVRTVYADSVK	GNVAGTFDV	250 pM	6 of 6	0 of 18
GFDLDSYGIS	VIYADGRRSAYHDSVK	GQLGGVSFV	no signal	0 of 6	1 of 18
GFDLDEYGIS	VIYADGQRKAYADSVK	GNQAGTFDV	190 pM	6 of 6	0 of 18
GFDLNEYGIS	VIYADGMRTSYADSVK	GNQAGTFDV	390 pM	6 of 6	1 of 18

Extract of 4 entries:

CDR-H1	CDR-H2	CDR-H3	Kd	detected	control signals
GFDLNEYGIS	VIYADGKRTFYADSVK	GEVAGTFDL	1.5 nM	6 of 6	0 of 18
GFDLNEYGIS	VIYADGLRTAYIDSVK	GENAGTFDV	84 pM	6 of 6	0 of 18
GFDLEDYGIS	VIYADGKRTAYADSVK	GNNAGTFDV	no signal	0 of 6	0 of 18
GFDLEKYGIH	VIYADGIRTSYSDSVK	GDLSGTFYV	25 nM	3 of 6	0 of 18